pIC50: −log10 of the molar value.
How the values were obtained:
[1] = target: Serine/threonine-protein kinase PLK1 (Homo sapiens, UniProt P53350)
[2] = target: Cyclin-dependent kinase 1 (Homo sapiens, UniProt P06493)

Amino acid sequences for entries named in this document (tags omitted).
UniProt P53350, whole entry: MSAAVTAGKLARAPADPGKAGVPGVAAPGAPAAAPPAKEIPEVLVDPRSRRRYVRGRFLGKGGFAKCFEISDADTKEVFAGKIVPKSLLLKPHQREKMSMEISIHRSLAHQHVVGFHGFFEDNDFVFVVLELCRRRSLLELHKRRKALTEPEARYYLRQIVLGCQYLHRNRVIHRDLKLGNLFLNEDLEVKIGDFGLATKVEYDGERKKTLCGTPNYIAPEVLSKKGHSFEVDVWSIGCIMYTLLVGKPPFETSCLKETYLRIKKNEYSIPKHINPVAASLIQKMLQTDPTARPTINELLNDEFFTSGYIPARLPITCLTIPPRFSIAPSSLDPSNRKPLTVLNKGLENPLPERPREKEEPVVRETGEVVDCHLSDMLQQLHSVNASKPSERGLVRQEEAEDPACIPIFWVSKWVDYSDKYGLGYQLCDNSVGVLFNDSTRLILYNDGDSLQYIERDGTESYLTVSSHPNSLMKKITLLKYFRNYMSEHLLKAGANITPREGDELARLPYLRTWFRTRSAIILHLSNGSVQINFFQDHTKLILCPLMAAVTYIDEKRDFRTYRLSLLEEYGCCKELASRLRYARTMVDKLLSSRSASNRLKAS
UniProt P06493, whole entry: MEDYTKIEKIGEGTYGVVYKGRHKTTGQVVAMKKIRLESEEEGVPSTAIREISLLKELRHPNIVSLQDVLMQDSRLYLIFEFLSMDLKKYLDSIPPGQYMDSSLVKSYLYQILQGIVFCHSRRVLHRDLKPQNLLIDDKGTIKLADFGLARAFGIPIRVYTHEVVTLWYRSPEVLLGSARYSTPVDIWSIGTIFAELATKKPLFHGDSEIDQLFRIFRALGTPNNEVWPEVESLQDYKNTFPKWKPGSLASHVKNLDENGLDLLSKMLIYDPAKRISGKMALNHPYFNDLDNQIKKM

- pIC50 [1]: < 5.00
- pIC50 [2]: < 5.00
SMILES: COc1cc2c(Nc3ccc(NC(=O)c4ccccc4)cc3)ncnc2cc1OCCCN1CCOCC1 [N-[4-({6-methoxy-7-[3-(morpholin-4-yl)propoxy]quinazolin-4-yl}amino)phenyl]benzamide]

Source: BindingDB's records for doi:10.1021/jm050786h (Astrazeneca, 2006)
